Experimental data: article PMC4239318, “Quantitative investigation of the affinity of human respiratory syncytial virus phosphoprotein C-terminus binding to nucleocapsid protein” (Virology Journal, 2014)

Amino acid sequences for entries named in this document (tags omitted). Residues count along the entry.
UniProt P03418, 13-391: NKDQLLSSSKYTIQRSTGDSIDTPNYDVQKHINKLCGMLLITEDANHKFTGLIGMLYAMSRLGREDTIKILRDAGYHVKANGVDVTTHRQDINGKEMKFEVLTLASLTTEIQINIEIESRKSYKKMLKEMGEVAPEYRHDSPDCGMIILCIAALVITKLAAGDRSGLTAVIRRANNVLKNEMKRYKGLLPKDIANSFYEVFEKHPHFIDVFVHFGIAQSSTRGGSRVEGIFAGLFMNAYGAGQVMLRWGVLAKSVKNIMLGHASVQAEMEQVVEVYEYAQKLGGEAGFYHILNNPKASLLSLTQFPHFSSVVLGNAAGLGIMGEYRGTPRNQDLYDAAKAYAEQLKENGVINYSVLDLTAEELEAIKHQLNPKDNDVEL

Target: RSV-N(13-391) (Human respiratory syncytial virus A, UniProt P03418)
Settings: 200 μM peptide, highest concentration tested
Protocol: Samples of 10 μl containing peptides and proteins as indicated were prepared in buffer composed of 10 mM Tris-HCl (pH 7.5) +0.01% Brij-35 detergent (Pierce Surfact-Amps-35, Thermo Fisher Scientific, Rockford, IL) in low-volume 384-well black polystyrene assay plates (Thermo Fisher Scientific, Hudson, NH). After a 5 minute incubation, fluorescence anisotropy was measured with a Pherastar plate reader (BMG Labtech, Cary, NC) equipped with a filter module having a 485 nm excitation filter and 520 nm emission filters with polarizers. The focal height was 10.8 mm. Each measurement used 50 flashes. The parallel and perpendicular detector gains were set to 392 and 366 in order to produce an anisotropy of about 0.03 in the absence of binding. […]
All fluorescence anisotropy measurements were performed at ambient temperature, approximately 21°C.
For the BP5 competition assay, the P protein storage buffer was replaced by repeated concentration using centrifugal ultrafiltration with a Millipore Ultrafree 0.5 unit with Biomax-10 membrane (EMD Millipore, Billerica, MA) and dilution with 10 mM Tris-HCl (pH 7.5). The protein concentration was determined by the method of Bradford using bovine serum albumin as the standard. […]

CC(C)C[C@H](NC(=O)[C@H](CO)NC(=O)[C@H](CC(C)C)NC(=O)[C@H](CC(=O)O)NC(=O)[C@H](CC(N)=O)NC(=O)[C@H](CC(=O)O)NC(=O)[C@H](CO)NC(=O)[C@@H](N)CC(=O)O)C(=O)N[C@@H](CCC(=O)O)C(=O)N[C@@H](CC(=O)O)C(=O)N[C@@H](C)C(=O)O
Inhibition of BP5 binding to N(13-391): about 25%
